This is one part of the list.

For the experiment, the system named is A. baumannii ATCC 17978. Briefly: relative growth (fraction of control); higher = less inhibition. The settings on record: 50 µM.
Consider `ClC(Cl)=C(c1ccc(Cl)cc1)c1ccc(Cl)cc1`, for which the relative growth was 1.04.

Compound `O=[N+]([O-])C(Br)(CO)CO` gave a relative growth of 0.149.

Compound `C=CCC1(C(C)CCC)C(=O)N=C([S-])NC1=O.[Na+]` (stereo unspecified) had a relative growth of 1.14.

`Clc1nc(N2CCNCC2)c2[nH]cnc2n1` displayed a relative growth of 1.02.

In turn, `COc1cccc(C2(N)CCCC2)c1` gave a relative growth of 0.958.

The compound `Cc1ccc2[nH]cc(C[C@@H](C)N)c2c1` returned a relative growth of 1.

Regarding `C[C@H]1CN(C)[C@@H](C)C[C@@H]1n1[nH]c(=O)cc1N`, the relative growth came out at 1.08.

On to `NC(Cc1ccccc1)Cc1ccccc1`, for which the relative growth stood at 0.923.

For `COc1cccc([C@]2(O)CCCC[C@H]2CN(C)C)c1.Cl`, the relative growth amounted to 1.03.

The compound `CC(=O)N1CCCC[C@]12CCNC2` displayed a relative growth of 1.22.

In turn, `C1COC2(CN1)CNC2` came in with a relative growth of 1.01.

For `CNc1ccccc1C(=O)O`, the relative growth stood at 1.09.

`CC(C)[N+](C)(CCC(C(N)=O)(c1ccccc1)c1ccccc1)C(C)C.[I-]` gave a relative growth of 0.923.

In turn, `C[C@]12C=CC(=O)C=C1CCC1C2CC[C@]2(C)C(=O)CCC12` (stereo partly specified) had a relative growth of 1.17.

The compound `CN1CCN(C(=O)O[C@H]2c3nccnc3C(=O)N2c2ccc(Cl)cn2)CC1` showed a relative growth of 1.23.

As for `O[C@@H]1[C@@H]2C[C@H]3[C@H]1N[C@@H]1C[C@@H]2[C@@H]3[C@H]1O`, the relative growth was found to be 1.01.

In turn, `C=C(C)[C@H]1CN[C@H](C(=O)O)[C@@H]1CC(=O)O` came in with a relative growth of 1.01.

In turn, `c1ccc2sc(C3(N4CCCC4)CCCCC3)cc2c1` registered a relative growth of 0.991.

As to `CC(=O)O[C@H]1C[C@H](O[C@H]2[C@@H](O)C[C@H](O[C@H]3[C@@H](O)C[C@H](O[C@H]4CC[C@@]5(C)C(CCC6C5C[C@@H](O)[C@]5(C)[C@@H](C7=CC(=O)OC7)CC[C@]65O)C4)O[C@@H]3C)O[C@@H]2C)O[C@H](C)[C@H]1O[C@@H]1O[C@H](CO)[C@@H](O)[C@H](O)[C@H]1O` (stereo partly specified), the relative growth worked out at 0.966.

As to `CN[C@@H]1[C@@H]2[C@H]3CCN2C[C@H]1O3`, the relative growth was 0.849.

`NC(=O)c1cc([N+](=O)[O-])cc([N+](=O)[O-])c1` came in with a relative growth of 0.883.

Compound `COc1ccc2c(c1O)-c1c(OC)c(OC)cc3c1[C@H](C2)N(C)CC3` had a relative growth of 0.99.

In turn, `C[C@]12C(=O)OC(=O)[C@]1(C)[C@H]1CC[C@H]2O1` gave a relative growth of 1.08.

For `CC[C@@H](CO)NC(=O)[C@@H]1C=C2c3cccc4c3c(cn4C)C[C@H]2N(C)C1.O=C(O)/C=C\C(=O)O`, the relative growth stood at 1.23.

Compound `CCOC(=O)CC(SP(=S)(OC)OC)C(=O)OCC` (stereo unspecified) gave a relative growth of 1.1.

Regarding `NC[C@H](CC(=O)O)c1ccc(Cl)cc1`, the relative growth amounted to 1.04.

In turn, `C=CCSSCC=C` showed a relative growth of 1.06.

Compound `NC[C@@H]1CCCN2CCCC[C@H]12` registered a relative growth of 0.957.

In turn, `NCc1cccnc1` had a relative growth of 0.909.

Compound `NSC(=S)N1CCCC1` had a relative growth of 0.887.

In the case of `Br.CN1C2C[C@H](OC(=O)[C@H](CO)c3ccccc3)C[C@H]1[C@H]1OC21` (stereo partly specified), the relative growth came out at 1.07.

`C[C@]12CCC3C(CC[C@]4(O)C[C@@H](O)CC[C@]34C=O)[C@@]1(O)CCC2C1=CC(=O)OC1` (stereo partly specified): the relative growth is 0.961.

`C#C[C@]1(O)C=CC2[C@@H]3CCC4=CC(=O)CC[C@@H]4C3CC[C@@]21CC` (stereo partly specified): the relative growth came to 1.21.

For `CN1CCc2cc([C@H](CN)N(C)C)ccc21`, the relative growth came out at 0.991.

In turn, `CC(=O)O[C@@H]1C[C@@]2(C)[C@H](c3ccoc3)C[C@H]3O[C@]32[C@]2(C)C(=O)C(O)=C3C(C)(C)C(=O)C=C[C@]3(C)[C@@H]12` had a relative growth of 1.1.

For the compound `Cc1ccc2c(CCN)c(C)n(C)c2c1`, the relative growth is 0.997.

Compound `O=c1[nH]c2ccccc2n1CCCN1CCC(n2c(=O)[nH]c3cc(Cl)ccc32)CC1` gave a relative growth of 1.04.

`CCCCOC(=O)C1=CC(=O)CC(C)(C)O1` came in with a relative growth of 0.862.

The compound `CC(C)(O)[C@@H]1[C@H]2OC(=O)[C@@H]1[C@]1(O)C[C@H]3O[C@]34C(=O)O[C@H]2[C@]14C` came in with a relative growth of 1.07.

As for `O=C([O-])Cc1ccccc1.[Na+]`, the relative growth was determined as 1.08.

In turn, `C=CC[C@]1(O)CCC2C3CCC4=CC(=O)CCC4=C3C=C[C@@]21C` (stereo partly specified) registered a relative growth of 0.902.

`CN(C)C(=O)C(CCN1CCC(O)(c2ccc(Cl)cc2)CC1)(c1ccccc1)c1ccccc1.Cl`: the relative growth was determined as 0.891.

For the compound `CC(C)c1ccc2c(c1)[C@H](O)[C@H](N)CCO2`, the relative growth came out at 0.962.

Compound `CC[C@H]1CN2CCC1C[C@@H]2[C@@H](O)c1ccnc2ccc(OC)cc12` (stereo partly specified) registered a relative growth of 0.879.

Take `CC1=C2CC3[C@@H](CC=C4C[C@@H](O)CC[C@@]43C)[C@@H]2CC[C@]12O[C@@H]1C[C@H](C)CN[C@H]1[C@H]2C` (stereo partly specified): the relative growth stood at 0.94.

`O=C1C=CC(=O)c2c(O)cccc21`: the relative growth amounted to 0.97.

Turning to `CC[C@@H]1/C=C/C=C/C[C@H](C)[C@@H](O)[C@](C)(O)C(=O)[C@H](C)[C@@H](O)[C@H](C)C(=O)[C@H](C)[C@@H](O)[C@H](C)/C=C/C(=O)O[C@H]2[C@@H](C)[C@@H](CC1)O[C@@]1(CC[C@@H](C)[C@@H](C[C@H](C)O)O1)[C@@H]2C`, the relative growth is 0.874.

On to `CC[C@H](c1cccc(O)c1)[C@@H](C)CN(C)C.Cl`, for which the relative growth came out at 1.17.

As to `O=C1C[C@H](c2ccccc2)[C@@H]2CNCCN12`, the relative growth amounted to 0.942.

Compound `Cl.NCCc1cc(O)c(O)cc1O` displayed a relative growth of 0.967.

Compound `C[N+](C)(C)CCCCCCCCCC[N+](C)(C)C.[Br-].[Br-]` displayed a relative growth of 0.995.

Turning to `COC(=O)[C@H]1O[C@@H]2C[C@H]3O[C@@H](n4cnc5c(N)ncnc54)[C@H](OC)[C@H]3O[C@@]2(O)[C@@H](O)[C@@H]1O`, the relative growth is 1.07.

On to `C=C[C@H]1CN2CC[C@H]1C[C@H]2[C@H](O)c1ccnc2ccccc12`, for which the relative growth was determined as 0.853.

As to `O=C1COC2(CNC2)CN1`, the relative growth amounted to 1.05.

As for `COC(=O)C1=CO[C@@H](C)C2CN3CC[C@]4(C(=O)Nc5ccccc54)C3C[C@H]12` (stereo partly specified), the relative growth was determined as 0.998.

The compound `O=C(O)c1cc(Cl)ccc1Cl` had a relative growth of 0.917.

`C=C[C@H]1CN2CC[C@H]1C[C@@H]2[C@H](O)c1ccnc2ccccc12`: the relative growth was 0.986.

On to `O=C1CC(=O)N(Cc2ccccc2)C(=O)N1`, for which the relative growth amounted to 1.02.

For `CS(=O)(=O)c1ccc(C(=O)C2C(=O)CCCC2=O)c([N+](=O)[O-])c1`, the relative growth was determined as 0.992.

For the compound `Br.CC(Cc1ccc(O)cc1)NCC(O)c1cc(O)cc(O)c1` (stereo unspecified), the relative growth amounted to 0.912.

Compound `OC[C@@H]1CCCN2CCCC[C@H]12` registered a relative growth of 0.987.

Compound `CN1C(=O)[C@]23CC4=CC=C[C@H](O)[C@H]4N2C(=O)[C@@]1(CO)SS3` showed a relative growth of 0.125.

`CCNS(=O)(=O)C(F)(F)C(F)(F)C(F)(F)C(F)(F)C(F)(F)C(F)(F)C(F)(F)C(F)(F)F`: the relative growth came to 0.961.

`C=CCN=C=S` yielded a relative growth of 0.83.

In turn, `C1CCc2nnnn2CC1` registered a relative growth of 0.947.

For `CC(=O)[O][Hg][c]1ccccc1`, the relative growth turned out to be 0.174.

In the case of `c1nc(N2CCN3CCC[C@H]3C2)c2[nH]cnc2n1`, the relative growth was found to be 0.944.

`C[C@H]1O[C@H](n2cnc3c(N)ncnc32)C[C@H]1O` registered a relative growth of 1.24.

Compound `COc1ccc(CN2CCNCC2)c(OC)c1OC.Cl.Cl` displayed a relative growth of 1.16.

`C[C@H](N)[C@H](O)c1ccc(O)c(O)c1` yielded a relative growth of 0.805.

Take `CC(=O)Nc1ccc(CCN)cc1`: the relative growth amounted to 0.895.

For the compound `CC1=CC(=O)c2c(O)cccc2C1=O`, the relative growth stood at 0.728.

As to `N[C@@H](Cc1ccc(N(CCCl)CCCl)cc1)C(=O)O`, the relative growth turned out to be 0.982.

The compound `NC(=O)c1ccc(N)nc1` yielded a relative growth of 1.04.

Turning to `C[C@]12CCC(=O)C=C1CC[C@@H]1C2C(=O)C[C@]2(C)C(=O)CCC12` (stereo partly specified), the relative growth worked out at 1.18.

`C[N+]1([O-])C2CCC1CC(OC(=O)C(CO)c1ccccc1)C2` (stereo unspecified) yielded a relative growth of 0.889.

Turning to `COc1ccc(Cc2nccc3cc(OC)c(OC)cc23)cc1OC.Cl`, the relative growth is 1.06.

In the case of `O=C1NC(=O)C(C2(O)C(=O)c3ccccc3C2=O)C(=O)N1`, the relative growth is 1.18.

In turn, `C[C@H]1O[C@H](O[C@H]2[C@H](O)[C@@H](O)[C@@H](O)[C@H](O)[C@@H]2O)[C@@H](N)C[C@@H]1NC(=N)C(=O)O.Cl` registered a relative growth of 0.662.

In turn, `Cl.NCCc1ccccc1` registered a relative growth of 1.08.

As for `Cc1ccc(-c2nc3ccc(C)cn3c2CC(=O)N(C)C)cc1`, the relative growth was found to be 1.33.

The compound `N#CCCN1CCCC2(CCCC2)C1` showed a relative growth of 0.948.

As for `Nc1nc(N)nc(NC2CC2)n1`, the relative growth was 1.2.

As to `CC(C)(C)C(O)(CCc1ccc(Cl)cc1)Cn1cncn1` (stereo unspecified), the relative growth worked out at 0.98.

The compound `CCOP(=S)(OCC)SCSP(=S)(OCC)OCC` came in with a relative growth of 1.02.

`CC(=O)O[C@H]1C[C@@H](OC(C)=O)C(C)(C)C2C[C@@H](OC(C)=O)[C@]3(C)C(CC[C@@]4(C)[C@H](c5ccoc5)C(=O)[C@H]5O[C@]543)[C@]21C` (stereo partly specified): the relative growth was 1.08.

`O=C(OC1CC2CCC(C1)[N+]21CCCC1)C(O)(c1ccccc1)c1ccccc1.[Cl-]` (stereo unspecified): the relative growth was 1.13.

As for `COc1cc2c3cc1Oc1c(OC)c(OC)cc4c1[C@@H](Cc1cccc(c1)Oc1ccc(c(O)c1)C[C@@H]3N(C)CC2)N(C)CC4.Cl.Cl`, the relative growth turned out to be 0.998.

`CCCC(C)C1(CC)C(=O)N=C([S-])NC1=O.[Na+]` (stereo unspecified) came in with a relative growth of 1.29.

The compound `Cc1cc(O)ccc1Cl` returned a relative growth of 0.883.

`COc1ccc2cc(CCN)c(=O)[nH]c2c1` had a relative growth of 0.936.

In the case of `C#CC1(O)CCC2C3CCC4=CC(=O)CCC4(C)C3CCC21C` (stereo unspecified), the relative growth stood at 1.47.

`COC(=O)CC1=C(C(=O)OC)[C@]2(C(=O)Nc3ccccc32)C(C(=O)OC)C(=N)O1` (stereo partly specified): the relative growth was 0.942.

Turning to `CO[C@@H]1C=C[C@@H]2[C@H]1N2CCO` (stereo partly specified), the relative growth is 1.09.

On to `[N-]=[N+]=NCc1ccccc1C[C@]1(C(=O)N2CCCCC2)N=C(c2ccc(OCCCO)cc2)O[C@H]1c1ccccc1N=[N+]=[N-]`, for which the relative growth was found to be 1.14.

Compound `CCCCC[C@H]1C(=O)O[C@H](C)[C@H](NC(=O)c2cccc(NC=O)c2O)C(=O)O[C@@H](C)[C@@H]1OC(=O)CC(C)C` [ANTIMYCIN A (A1 shown)] displayed a relative growth of 0.829.

The compound `C[C@@H]([C@H](O)c1ccccc1)N(C)C` gave a relative growth of 0.923.

The compound `C[C@@H]1CC[C@@]2(NC1)O[C@H]1C[C@H]3C4CC=C5C[C@@H](O)CC[C@]5(C)C4CC[C@]3(C)C1[C@@H]2C` (stereo partly specified) came in with a relative growth of 1.07.

The compound `CN1CCc2cc3c(cc2[C@H]1C1OC(=O)c2c1ccc1c2OCO1)OCO3` (stereo partly specified) came in with a relative growth of 1.12.

Turning to `CC(C)(O)C(Cl)(Cl)Cl`, the relative growth came to 1.1.

`CC(=O)Oc1ccc(/C=C/c2cc(OC(C)=O)cc(OC(C)=O)c2)cc1` had a relative growth of 1.

Take `Cl.c1cncc(C2CCCCN2)c1` (stereo unspecified): the relative growth worked out at 0.932.

As for `CCCCCCCCCCCCCCCC[n+]1ccccc1.[Cl-]`, the relative growth was 0.248.

In the case of `Cc1noc(C)c1CN1CCNCC1`, the relative growth came out at 1.05.

For `CCCCCCCCCc1ccc(O)cc1`, the relative growth worked out at 1.18.

For `CC[C@@]1(O)C(=O)OCc2c1cc1n(c2=O)Cc2cc3ccccc3nc2-1`, the relative growth was 0.993.

The values above are taken from published antibiotic growth screens (doi:10.1038/s41589-023-01349-8).
